Measured values published in PubChem BioAssay (Tox21).
Several values for one entry are separate records, joined by “and”; a condition that tells them apart may be missing. Equal entries are not always repeated. This is a selection; strong and weak results do not stand in their true shares. Records with an inconclusive call do not appear. A structure can be active in one record and inactive in another. Activity calls are given as the source filed them. Calls come from the whole dose curve; as a rule, active = well fitted cell-killing curve with a large enough effect in the repeat runs; inconclusive = weak or mixed curves, or effect the other way; inactive = no such curve, though single readings can be large or run the other way.

Assay: qHTS assay to identify small molecule agonists of the farnesoid-X-receptor (FXR) signaling pathway - cell viability counter screen (AID 743218); note: nearly all actives have a fitted effect of over 45% in size
Details: FXR-bla HEK293T viability, CellTiter-Glo luminescence, 16 h; series mostly up to 62.6 µM; viability change, negative = cytotoxic: at the top concentration
From the text: U.S. Tox21 Program National Center for Advancing Translational Sciences [NCATS] NIH Chemical Genomics Center [NCGC] U.S. Environmental Protection Agency [EPA] National Institutes of Environmental Health Sciences [NIEHS] National Toxicology Program [NTP] U.S. Food and Drug Administration [FDA] Tox21 Assay Overview: The farnesoid-X-receptor (FXR), a nuclear hormone receptor, is highly expressed in liver, intestine, kidney and adrenal cortex. Natural ligands of FXR are the bile acids (Cholic acid, Chenodeoxy cholic acid etc). FXR is an important regulator of diverse metabolic pathways, including the bile acid homeostasis, lipid and glucose metabolisms. FXR regulates the expression of target genes by binding either as a monomer or as a heterodimer with the retinoid X receptor (RXR). Numerous studies have reported that FXR exerts protective function during cholestasis, diabetes, liver regeneration, and cancer. To identify compounds that activate FXR signaling, GeneBLAzer FXR-UAS-bla HEK 293T cell line (Invitrogen, Carlsbad, CA) containing a beta-lactamase reporter gene under the control of a UAS response element was used to screen the Tox21 10K compound library. The cytotoxicity of the Tox21 compound library against the FXR-bla cell line was tested in parallel by measuring the cell viability using CellTiter-Glo assay in the same wells.
Tox21 Assay Protocol Summary: FXR-bla cells were dispensed at 5000 cells/5uL/well in 1536-well black wall/clear bottom plates using a Multidrop Combi (Thermo Fisher Scientific, Waltham, MA) dispenser. After the assay plates were incubated at 37 C and 5% CO2 for 5 h, 23 nL of compounds dissolved in DMSO, positive controls or DMSO only was transferred to the assay plate by a Pintool station (Kalypsys, San Diego, CA). The assay plates were incubated at 37C for 16 h. After 1 uL of LiveBLAzerTM B/G FRET substrate was added using a Bioraptr Flying Reagent Dispenser (FRD) workstation (Beckman Coulter, Indianapolis, IN), the plates were incubated at room temperature for 2 h, and fluorescence intensity was measured by an Envision plate reader (PerkinElmer, Shelton, CT). For cell viability readout that measures cytotoxicity, 4uL/well of CellTiter-Glo reagent was added into the assay plates using a Bioraptr FRD. After 30 min incubation at room temperature, the luminescence intensity in the plates was measured using a ViewLux plate reader (PerkinElmer).
% is set by controls: 0 for no effect and ±100 for the full control effect; potency is the fitted concentration of half-maximal effect.

Structure (SMILES) | viability change, negative = cytotoxic | Potency
O=[p+]1oc2ccccc2c2ccccc21 (centres undefined) | inactive: -6.65% | 
CCOP(=S)(CC)Sc1ccccc1 (centres undefined) | inactive: 4.92% | 
CN(C(=O)Cc1ccc(Cl)c(Cl)c1)[C@H]1CC[C@@]2(CCCO2)C[C@@H]1N1CCCC1 | inactive: -5.58% | 
CN(N=O)C(=N)N[N+](=O)[O-] | inactive: -27.5% | 
CCCCC(CC)CO[P+](=O)OCC(CC)CCCC (centres undefined) | inactive: 2.26% | 
COP(=S)(Cl)OC | inactive: 16.9% [at 81.1 µM] | 
CN(C(=O)Cc1cccc2occc12)[C@H]1CC[C@@]2(CCCO2)C[C@@H]1N1CCCC1 | inactive: -2.27% | 
CCNC(C)Cc1ccc2c(c1)OCO2 (centres undefined) | inactive: 1.68% [at 81.1 µM] | 
O=[N+]([O-])c1ccc(S(=O)(=O)O)c([N+](=O)[O-])c1 | inactive: -11.8% [at 81.1 µM] | 
O=C1C2CC=CCC2C(=O)N1SC(Cl)(Cl)C(Cl)Cl (centres undefined) |  | inactive and active: 7.76 µM
CN(C(=O)Cc1ccccc1)[C@H]1CC[C@@]2(CCCO2)C[C@@H]1N1CCCC1 | inactive: -18.3% | 
NC(=O)Nc1ccc([As](=O)(O)O)cc1 | inactive: 9.12% | 
CC(C)OP(=S)(OC(C)C)SCCNS(=O)(=O)c1ccccc1 | inactive: 2.42% | 
O=P(Cl)(Cl)c1ccccc1 | inactive: 25.6% | 
ClP(Cl)c1ccccc1 | inactive: 22.2% | 
O=P(Cl)(Oc1ccccc1)Oc1ccccc1 | inactive: -1.17% | 
CCCCO[P+](=O)OCCCC |  | inactive
O=[P+](Oc1ccccc1)Oc1ccccc1 | inactive: 5.56% | 
Cc1cc([N+](=O)[O-])cc([N+](=O)[O-])c1O |  | inactive and active: 1.06 µM
